We go through 27 molecules from PubChem BioAssay AID686964 (The Scripps Research Institute Molecular Screening Center, 2013).

By UniProt entry, the sequences of proteins in these tests, tags left out.
UniProt Q9UBB5, whole entry, looked up: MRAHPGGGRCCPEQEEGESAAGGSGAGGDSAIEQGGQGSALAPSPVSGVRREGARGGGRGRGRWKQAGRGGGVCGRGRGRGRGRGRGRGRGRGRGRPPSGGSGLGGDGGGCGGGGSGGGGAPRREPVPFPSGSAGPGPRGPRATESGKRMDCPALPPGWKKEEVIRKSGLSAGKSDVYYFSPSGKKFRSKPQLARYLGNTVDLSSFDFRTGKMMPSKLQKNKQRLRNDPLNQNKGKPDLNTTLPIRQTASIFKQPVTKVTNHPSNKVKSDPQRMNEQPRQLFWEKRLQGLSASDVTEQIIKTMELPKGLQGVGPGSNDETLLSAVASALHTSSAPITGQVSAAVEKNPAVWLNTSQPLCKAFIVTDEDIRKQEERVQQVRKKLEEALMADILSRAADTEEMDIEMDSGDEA

Only a part is listed here, and it is no random draw. Active and inactive are the calls of the source. No stated cut-off is given here; in the data, active means inhibition above about 13%; inactive means the rest.

The target of this test is Methyl-CpG-binding domain protein 2 (Homo sapiens) (UniProt Q9UBB5). Nature of the test: inhibitors of MBD2 binding to methylated DNA, primary screen, biochemical, TR-FRET, DNA-binding domain, human (AID 686964). The settings on record: MBD2 binding to methylated oligonucleotide, at 4.4 µM, active compounds read high.
Turning to `Cc1ccc(NP(=O)(Oc2cccc(C)c2)Oc2cccc(C)c2)nc1`, the inhibition (commonly the change of the read-out against control, counted positive when it falls) was inactive: 3.68%.

For the molecule `c1ccc(-c2nn[nH]n2)c(-c2nn[nH]n2)c1`, the inhibition was inactive: -2.03%.

Take `O=C(NC1CCS(=O)(=O)C1)NP(=S)(Oc1ccccc1)Oc1ccccc1` (configuration not stated): the inhibition is inactive: 7.25%.

In the case of `CCNC(=S)/N=C(\N)N[N+](=O)[O-]`, the inhibition was inactive: 2.1%.

As to `O=P1(N(CCCl)CCCl)OCCC2CCCCN21` (configuration not stated), the inhibition is inactive: -1.41%.

With `CCC(=O)N1C2C3N(C(=O)CC)C1C1N(C(=O)CC)C(C(N1C(=O)CC)N3C(=O)CC)N2C(=O)CC`, the inhibition was inactive: 1.26%.

As to `O=C(OC1CN2CCC1CC2)c1ccccc1` (configuration not stated), the inhibition is inactive: 4.51%.

Regarding `Cc1ccc(OP(=O)(Nc2ccccn2)Oc2ccc(C)cc2)cc1`, the inhibition is inactive: -0.06%.

For `CC(=O)NC(SC(=S)N(CC(C)C)CC(C)C)C(Cl)(Cl)Cl` (configuration not stated), the inhibition was inactive: -2.18%.

`COC(=O)c1cc2c(s1)N=C(c1ccccc1)N(C)P2(=O)N1CCOCC1` (configuration not stated): the inhibition is inactive: -4.57%.

As for `CN(C)C(=O)Oc1noc2ccccc12`, the inhibition is inactive: 2.37%.

As to `O=c1c2cc([N+](=O)[O-])ccc2[nH]c2c([N+](=O)[O-])cc([N+](=O)[O-])cc12`, the inhibition is inactive: 2.09%.

With `Cc1ccccc1OP(=O)(Nc1ccccn1)Oc1ccccc1C`, the inhibition was inactive: 0.65%.

With `CC(NC(=O)COC(=O)C(O)(c1ccccc1)c1ccccc1)c1ccccc1` (configuration not stated), the inhibition was inactive: 1.28%.

Take `CCOc1ccc(C2=NCC(CBr)S2)cc1` (configuration not stated): the inhibition is inactive: 0.46%.

As for `O=P1(Nc2nc3ccc(Cl)cc3s2)COc2ccccc2O1` (configuration not stated), the inhibition is inactive: -4.63%.

With `CC(C)(C)C(=O)NC(Sc1ccccc1)C(Cl)(Cl)Cl` (configuration not stated), the inhibition was inactive: 5.44%.

Regarding `CCc1cc(O)c([N+](=O)[O-])c(C)c1[N+](=O)[O-]`, the inhibition is inactive: -0.91%.

`C[C@@H]1C=CCP(=O)(Oc2ccccc2)O1` (some centres not stated): the inhibition is inactive: -1.74%.

For `C[C@H]1OP(=O)(Oc2ccccc2)C[C@@H]2O[C@@H]21` (some centres not stated), the inhibition is inactive: 1.74%.

As for `Cc1ccccc1CN(C)C(=O)COC(=O)C(O)(c1ccccc1)c1ccccc1`, the inhibition was inactive: 5.42%.

With `COC(=O)C1(C)COP(=O)(NCc2ccccc2)OC1` (configuration not stated), the inhibition is inactive: 0.51%.

`N#C/C(=C\c1ccc(N(CCBr)CCBr)cc1)C(N)=O`: the inhibition is inactive: -5.66%.

On to `CC(=O)c1ccc(N2CC2c2ccncc2)cc1` (configuration not stated), for which the inhibition is inactive: -0.64%.

As for `CC(=O)Nc1ccc(Oc2c([N+](=O)[O-])cc([N+](=O)[O-])cc2[N+](=O)[O-])cc1`, the inhibition is inactive: -8.58%.

With `CC(=O)Nc1ccc([As](=O)(O)O)c(O)c1`, the inhibition is inactive: 0.52%.

Take `O=P(Nc1nccs1)(c1ccccc1)c1ccccc1`: the inhibition is inactive: 1.97%.
